The results in this text go back to patent US7033582B2 (Teva Pharmaceutical Industries, Ltd., priority 2000, dated 2006).

For test [1], the system named is MMP-9 production by T lymphocytes. The test can be described thus: MMP-9 production by anti-CD3 activated T lymphocytes (zymography of conditioned medium). The note with it: 1000 IU/ml recombinant interferon β-1b. Type of test: cell-based, human. Here is the method: Heparinized blood was collected from normal volunteers, and subjected to Ficoll-Hypaque (Pharmacia Biotech, Mississauga, Ontario) centrifugation to obtain peripheral blood mononuclear cells (PEMNCs) as described previously (15). After two washes, cells were suspended at a density of 1–2 million/ml in horizontal T-25 flasks (Nunc, Becton Dickinson, Mississauga, Ontario) in the serum free medium, AIM-V (GIBCO/BRL), to which 1 ng/ml of an anti-CD3 antibody (OKT3, compliments of Jack Antel, Montreal, Canada) was added. Three hours after the anti-CD3 addition, the T-25 flasks were stood upright from their horizontal position in order to […] monocytes that had adhered. Floating cells, which were mostly lymphocytes, were left for a period of 72 hours at 37° C. […] Henceforth, given that the majority of cells in the MNC population are T lymphocytes, these will be referred to as T lymphocytes.
(§1) Cells were left for 69 h at 37° C., then collected, counted and resuspended in fresh AIM-V at density of 500,000 cells per ml. […] Thereafter, 500 μl (250,000 cells) of the suspension was taken for migration assays described below. Alternatively, 100 μl (50,000 cells) of cell suspension was added to each individual well of a 96-well plate already containing microglia or U937 monocytoid cells (see below).

The test system of another test is MMP-9. The test can be described thus: MMP enzyme activity in gelatin zymography, test agent in wash and reaction buffer. The settings on record: agent in incubation buffers during zymogram development; MMP-9 from BHK cells or T lymphocytes. Type of test: biochemical, Baby Hamster Kidney (BHK) cells and human T lymphocytes. The source says: The analysis of cell conditioned medium in zymography is a reflection of the amount of MMPs that was produced by the particular culture. […] An inhibitor of MMP activity prevents gelatin degradation by gelatinases and the resultant size of the band of gelatinases would be smaller as compared to that obtained in the absence of inhibitors.

In another test the test system is T lymphocytes. The test can be described thus: Migration assay across fibronectin-coated Boyden chamber. Format: cell-based, human. The note with it: 3 days treatment, 1000 IU/ml. Here is the method: as §1
To address the migration capacity of T lymphocytes, 2×10^5 T lymphocytes in 500 μl of 2.5% fetal calf serum (FCS) containing AIM-V were seeded into the top compartment of a Boyden chamber (Collaborative Biomedical Products, Bedford, Md.). This chamber consists of two compartments separated by a polycarbonate membrane filter (9 mm in diameter, with 3 μm pores) precoated on its upper surface with fibronectin. Fibronectin was employed to simulate the basal lamina.
The bottom compartment of the migration chamber contained 10% FCS-supplemented AIM-V; the higher concentration of FCS in the bottom chamber served as a directional gradient (77). After 5 h at 37° C., the content of the lower chamber was collected, and the number of migrated T lymphocytes was counted with the Coulter Counter Z1.

With “IFNβ-1b: recombinant interferon β-1b, used as positive control”, the “production of MMP-9 by T lymphocytes compared to controls” value in test [1] is “produced less MMP-9”; in test [1] (listed as Interferon β) it was “inhibited”. Also, the “inhibition of MMP-9 enzymatic activity (size of gelatinase band in zymogram)” value in the test on MMP-9 was “not a direct MMP activity inhibitor”. Besides, in the test on T lymphocytes, the “decrease of T lymphocyte migration” value is listed as 20–50%.
